Measured values taken from patent publication US12012615B2, “Method of making induced pluripotent stem cells using p53 inhibitors” (Kyoto University, priority 2008, dated 2024).

Tested on: HDFs
Experiment: Human iPS cell generation with MDM2 or RB shRNA co-transduction
Format: cell-based
Details: four or three reprogramming factors; retroviral vectors; n=4
Description: FIGS. 21A and 21B show effects of MDM2 co-transduction on iPS generation from HDFs by the four or three reprogramming factors. The retroviral vector expressing MDM2, p53 shRNA or RB shRNA, or control vector was transduced into HDFs together with the four factors (FIG. 21A) or three factors (FIG. 21B). Shown are the numbers of iPS colonies from 5×10^4 cells of HDF.
The effects of MDM2 that binds with and inhibits p53 were examined. Specifically, human MDM2 gene (SEQ ID NO:41) was co-introduced with the four or three reprogramming factors into HDFs using retroviral vectors, and iPS colonies were formed in the same manner as in Example 7 (n=4).

MDM2: human MDM2 gene (SEQ ID NO:41), binds with and inhibits p53, introduced by retroviral vector
establishment efficiency of iPS cells: improved
